For orientation: Ki means a dissociation constant, usually derived from enzyme kinetics or from competition with a known ligand.

Data on one molecule can be found in ChEMBL document CHEMBL1143652, “Joys of molecules. 2. Endeavors in chemical biology and medicinal chemistry” (J Med Chem, 2005).

This assay has as its target Protein kinase C (PKC). Briefly: Inhibitory constant against protein kinase C. The format is protein assay.

Consider `O=C(N[C@@H]1CNCCC[C@H]1OC(=O)c1cc(O)c(C(=O)c2c(O)cccc2C(=O)O)c(O)c1)c1ccc(O)cc1` [BALANOL], for which the Ki worked out at 5.3 nM.
